Data reported in patent US12151000B2, “Tolerogenic artificial antigen-presenting cells” (THE JOHNS HOPKINS UNIVERSITY, priority 2019, dated 2024).

Assays:
[1] = system: IL-2Rα^+ YT-1 cells; test: YT-1 cell STAT5 phosphorylation, IL-2Rα+ cells; type: cell-based, human; conditions: flow cytometry, 20 minutes stimulation
Experimental: (§1) YT-1 cell STAT5 phosphorylation studies. Approximately 2×10^5 IL-2Rα^− YT-1 or IL-2Rα^+ YT-1 cells were plated in each well of a 96-well plate and re-suspended in RPMI complete medium containing serial dilutions of the indicated treatments. Cytokine/antibody complexes were formed by incubating a 1:1 molar ratio of F5111 antibody to hIL-2 for 1 hour at 37° C. Cells were stimulated for 20 minutes at 37° C. and immediately fixed by addition of formaldehyde to 1.5% and 10 minute incubation at room temperature. Permeabilization of cells was achieved by resuspension in ice-cold 100% methanol for 30 minutes at 4° C. […] Cells were then washed twice in FACS buffer and mean fluorescence intensity (MFI) was determined on a CytoFLEX flow cytometer (Beckman-Coulter). Dose-response curves were fitted to a logistic model and half-maximal effective concentrations (EC50s) were calculated using GraphPad Prism data analysis software after subtraction of the mean fluorescence intensity (MFI) of unstimulated cells and normalization to the maximum signal intensity. […]
(§2) A cell signaling assay was performed on YT-1 human NK cells with or without IL-2Rα. FIGS. 15A and 15B show STAT5 phosphorylation in response to hIL-2, hIL-2/F5111 complex, F5111 IC LN15, F5111 IC LN25, or F5111 IC LN35 on IL-2Rα^+ cells (FIG. 15A) or IL-2Rα^− cells (FIG. 15B), as measured by flow cytometry.

[2] = system: IL-2Rα^− YT-1 cells; test: YT-1 cell STAT5 phosphorylation, IL-2Rα− cells; type: cell-based, human; conditions: flow cytometry, 20 minutes stimulation
Experimental: as §1, §2

With “IL-2: human IL-2 cytokine (residues 1-133), SEQ ID NO: 6 [reference compound]” the “STAT5 activation on IL-2Rα^+ YT-1 cells” value [1] was “signals” and the “STAT5 activation on IL-2Rα^− YT-1 cells” value [2] was “signals”.
